Results: paper PMC12582325 (Proceedings of the National Academy of Sciences of the …, 2025)
“And” between values parts separate entries of the source, which are not always exact repeats. Identical values can stand only once. Like-named read-outs stand apart in the source and are kept apart here.

Assays:
Bb.Ste2 [1] = type: cell-based, Beauveria bassiana
Fo.Ste2 [2] = type: cell-based, Fusarium oxysporum
Fo.Ste2 [3] = type: cell-based, Fusarium oxysporum; remark: listed apart in the source
[4] = system: empty (strain lacking a GPCR); type: cell-based, Saccharomyces cerevisiae; details: Fig. 1D mating matrix; pheromone secreted by MATa strain, MATα strain lacking a GPCR (empty); deep well plate, 20 h coculture
Fg.Ste2 [5] = type: cell-based, Fusarium graminearum; details: for Diploid frequency (%): 20 h coculture; for diploid frequency (%) / average (diploid colonies): GPCR strain GEN37 HIS; for average (diploid colonies): dilution 500, mean of Rep1-3
Ca.Ste2 = type: cell-based, Candida albicans
Hj Ste2 GPCR (Hj.Hpr2) = type: cell-based, Hypocrea jecorina
Bc.Ste2 [6] = type: cell-based, Botrytis cinerea
Mo Ste2 GPCR = type: cell-based, Magnaporthe oryzae; details: Fig. 1D mating matrix; pheromone secreted by MATa strain, GPCR in MATα strain; deep well plate, 20 h coculture; three technical plating replicates
Fg.Ste2 [7] = type: cell-based, Fusarium graminearum; details: Fg.Ste2 biosensor CPK366; 10 μM synthetic alpha pheromone; normalized to yEGFP background (receptor without pheromone); four biological replicates; Fig. 1E
Sc Ste2 = target: T1, Sc Ste2 (Saccharomyces cerevisiae, UniProt D6VTK4); type: cell-based
T1 construct: The native Sc system and an empty construct were added as positive and negative controls; endogenous in cells; host or cells: Saccharomyces cerevisiae wild-type control strains GEN18 (MATa) and GEN27 (MATα)
T1 sequence (D6VTK4 1-431): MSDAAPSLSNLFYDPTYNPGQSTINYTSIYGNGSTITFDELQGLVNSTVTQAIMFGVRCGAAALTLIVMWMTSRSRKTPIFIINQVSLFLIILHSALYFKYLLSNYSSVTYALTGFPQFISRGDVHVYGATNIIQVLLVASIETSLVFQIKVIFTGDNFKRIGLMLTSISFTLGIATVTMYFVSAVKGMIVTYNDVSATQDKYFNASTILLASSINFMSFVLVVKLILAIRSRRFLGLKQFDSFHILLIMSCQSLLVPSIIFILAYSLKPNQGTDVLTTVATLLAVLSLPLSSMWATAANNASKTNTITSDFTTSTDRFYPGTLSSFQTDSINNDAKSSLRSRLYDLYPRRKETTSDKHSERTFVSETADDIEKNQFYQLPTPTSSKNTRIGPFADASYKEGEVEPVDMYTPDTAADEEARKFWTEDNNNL

Nc Ste2 GPCR = type: cell-based, Neurospora crassa
Bc.Ste2 [8] = type: cell-based, Botrytis cinerea; remark: listed apart in the source
Bb.Ste2 [9] = type: cell-based, Beauveria bassiana; details: for Diploid frequency (%): 20 h coculture; for diploid frequency (%) / average (diploid colonies): GPCR strain GEN47 HIS; for average (diploid colonies): dilution 500, mean of Rep1-3
[10] = Fig. 1D mating matrix, pheromone secreted by MATa strain, GPCR in MATα strain, deep well plate, three technical plating replicates
[11] = Fig. 1F validation in culture tubes, secreted pheromone, three biological and three technical replicates

N=C(N)NCCC[C@H](NC(=O)CNC(=O)[C@H](CS)NC(=O)[C@@H](N)Cc1c[nH]c2ccccc12)C(=O)N1CCC[C@H]1C(=O)NCC(=O)N[C@@H](CCC(N)=O)C(=O)N1CCC[C@H]1C(=O)N[C@@H](CS)C(=O)O [Bc]
Fold change yEGFP (Bb.Ste2 [1]): 1 | Fold change yEGFP (Fo.Ste2 [2]): 1 | Diploid frequency (%) (Fo.Ste2 [3]): 0.0% | average (diploid colonies) (Fo.Ste2 [3]): 0 | diploid frequency (%) (Fo.Ste2 [3]): 0% | Diploid frequency (%) [4]: 0.1% | Diploid frequency (%) (Fg.Ste2 [5]; [10]): 0.0% | Diploid frequency (%) (Fg.Ste2 [5]; [11]): 0.0% | diploid frequency (%) (Fg.Ste2 [5]; co-culture replicate 1): 0% | average (diploid colonies) (Fg.Ste2 [5]; co-culture replicate 1): 0 | diploid frequency (%) (Fg.Ste2 [5]; co-culture replicate 2): 0% | average (diploid colonies) (Fg.Ste2 [5]; co-culture replicate 2): 0 | diploid frequency (%) (Fg.Ste2 [5]; co-culture replicate 3): 0% | average (diploid colonies) (Fg.Ste2 [5]; co-culture replicate 3): 0 | Diploid frequency (%) (Ca.Ste2): 0.0% | Diploid frequency (%) (Hj Ste2 GPCR (Hj.Hpr2)): 0.0% | Bc.Ste2 + pheromones, biosensor response, group mean (Bc.Ste2 [6]): 134.8 | Fold change yEGFP (Bc.Ste2 [6]): 154 | Normalized over control (Bc.Ste2 [6]): 115.60 and 115.12 and 113.51 and 110.13 | logEC50 (Bc.Ste2 [6]): -9.689 | Sup.Fig.3B Bc.Ste2 biosensor response, group mean (Bc.Ste2 [6]; 0.0005 μM): 897250 | Diploid frequency (%) (Mo Ste2 GPCR): 0.2% | Fold change yEGFP (Fg.Ste2 [7]): 1 | Diploid frequency (%) (Sc Ste2): 0.0% | Diploid frequency (%) (Nc Ste2 GPCR): 0.0% | Diploid frequency (%) (Bc.Ste2 [8]): 9.0% and 1.9% | diploid frequency (%) (Bc.Ste2 [8]): 11.02% and 5.15% and 10.94% | Diploid frequency (%) (Bb.Ste2 [9]; [10]): 0.0% | Diploid frequency (%) (Bb.Ste2 [9]; [11]): 0.1% | diploid frequency (%) (Bb.Ste2 [9]; co-culture replicate 1): 0.2% | average (diploid colonies) (Bb.Ste2 [9]; co-culture replicate 1): 1 | diploid frequency (%) (Bb.Ste2 [9]; co-culture replicate 2): 0.07% | average (diploid colonies) (Bb.Ste2 [9]; co-culture replicate 2): 0.33 | diploid frequency (%) (Bb.Ste2 [9]; co-culture replicate 3): 0.07% | average (diploid colonies) (Bb.Ste2 [9]; co-culture replicate 3): 0.33
